Measurements as given in paper PMC5939596 (Cell chemical biology, 2016).

Tested on: legumain over-expressing M38L cells
Conditions: M38L cells incubated with probe, harvested in SDS-sample buffer

Question: How did the “intracellular protein binding / cell permeability” value turn out when “biotin-6-ahx-DEVD-AOMK [reference compound]” was run?
Answer: did not bind any intracellular proteins in these cells or was not cell permeable
